Shown are actives, neighbours in structure and some others; about 4.2% of the full set was active somewhere.
ALR H2O2 inh = blocks human ALR sulfhydryl oxidase activity; inhibition, % (concentration not given with the values); purified ALR, DTT oxidation, H2O2 HRP-luminol luminescence; P55789; 3.8% of 290,000 active;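 active = mean and each replicate at 75% or more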;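 also: stock transfer was 7.5 nL into about 7.5 µL; 0% = neutral wells and 100% = wells with inactivated enzyme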
Yeast UUG start = modulators of start codon recognition fidelity in yeast; AID 602363; activity score, % at 18.7 µM; S. cerevisiae UUG-firefly luciferase reporter, luminescence/redox ratio; actives 0.13% (n = 350,000);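 active = replicate mean at a twofold rise or more, about +100% in these data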;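 note: firefly luciferase made from a UUG start codon reports start codon fidelity; reporter light over untreated wells divided by growth signal over untreated wells; some hits fall short of that in this replicate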
NALP1 inh = blocks the NALP1 inflammasome reconstituted in yeast | S. cerevisiae NALP1/ASC/caspase-1 growth, X-gal OD620, 72 h | inhibition, % at 10 µM | actives 0.61% (n = 280,000) | AID 2071; in the data active = inhibition mostly above about 24%, no sharp cut-off; inactive = mostly below about 32%
MC4R ag barr = agonists of human melanocortin 4 receptor (MC4R) beta-arrestin; activation, % at 8.9 µM; actives 0.98% (n = 360,000); U2OS MC4R beta-arrestin complementation, luminescence; percent of melanotan II response, DMSO zero; P32245;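 active = activation above a per-plate cutoff, the mean activation of sample wells on that plate plus 3 SD, cut at about 8% in these data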
MC4R antag cAMP = human MC4R antagonism in cAMP assay; MC4R-expressing cells, MTII-stimulated cAMP, LANCE TR-FRET; inhibition, % at 6.5 µM; actives 0.48% (n = 360,000);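 active = inhibition above its plate's cutoff, the mean of tested wells on that plate plus 3 SD, cut at about 29% in these data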;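 also: 0% = Melanotan II alone and 100% = Melanotan II plus saturating MCL0020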
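Material: human MC4R-expressing U2OS cells. Probe or stimulus: Melanotan II challenge. Dosing: 6.5 µM single dose. Times: 30-min compound, 1-h challenge, 1-h detection, room temperature. Technique: TR-FRET with Eu-cAMP and labeled anti-cAMP, 671 nm. Replication: singlicate.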
HDAC3 inhib = inhibitors of human histone deacetylase 3; O15379; recombinant HDAC3, fluorogenic peptide/trypsin coupled, fluorescence; inhibition, % at 8.3 µM; actives 0.15% (n = 320,000); in the data active = inhibition above about 26%, passing the limit was not always enough
cAMP nonselect = U2OS forskolin cAMP inhibition counter-screen | AID 602193 | inhibition, % at 6.5 µM | shares compounds with MC4R antag cAMP | actives 26% (n = 1,600) | parental U2OS, LANCE TR-FRET;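 active = mean inhibition over triplicates above the low-control well mean plus 3 SD, set per campaign, cut at about 13% in these data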;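 also: signal is single emission at 671 nm which falls as cellular cAMP rises; 0% = forskolin-stimulated wells and 100% = buffer without forskolin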
MC4R antag conf = human MC4R cAMP antagonism confirmation; shares compounds with MC4R antag cAMP; inhibition, % at 6.5 µM; actives 27% (n = 1,600); MC4R-expressing cells, MTII-stimulated cAMP, TR-FRET; in the data active = inhibition above about 29%;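 also: 0% = agonist stimulated wells alone and 100% = agonist stimulated wells plus saturating reference antagonist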
* marks the source's active call; other numbers are inactive results.

How did C=CC[n+]1c(-c2ccc(C)cc2)csc1Nc1c(C)n(C)n(-c2ccccc2)c1=O do in these assays?
ALR H2O2 inh: 99*; Yeast UUG start: -4; NALP1 inh: -3; MC4R ag barr: -3; MC4R antag cAMP: -6; HDAC3 inhib: 9

Results for Cc1c(Nc2nc(-c3ccccc3)cs2)c(=O)n(-c2ccccc2)n1C ?
NALP1 inh: 22; MC4R ag barr: -1; MC4R antag cAMP: 3; HDAC3 inhib: -2

Results for C=CC[n+]1c(-c2ccc(Cl)cc2Cl)csc1Nc1c(C)n(C)n(-c2ccccc2)c1=O ?
ALR H2O2 inh: 94*; Yeast UUG start: -3; NALP1 inh: -1; MC4R ag barr: -7; MC4R antag cAMP: 5; HDAC3 inhib: 7

How did C[C@H](O)C#Cc1ccc2c(c1)O[C@@H](CN(C)C(=O)C1CCCCC1)[C@H](C)CN([C@H](C)CO)S2(=O)=O do in these assays?
Yeast UUG start: 7

Results for O=C(C[C@H]1CC[C@@H](NC(=O)Nc2ccccc2)[C@H](CO)O1)NCc1cccc(F)c1 ?
Yeast UUG start: 1

Results for CN1C(=O)/C(=C/c2cn(CC(=O)NCc3ccco3)c3ccccc23)NC1=S ?
ALR H2O2 inh: 97*; NALP1 inh: -1; HDAC3 inhib: 4

What do the screens show for `Cc1ccccc1-c1cc(C(=O)NCc2cccc(C(F)(F)F)c2)n(CC2CC(c3cccnc3)=NO2)n1` (stereo not drawn)?
ALR H2O2 inh: 3; Yeast UUG start: 5; MC4R ag barr: 0; MC4R antag cAMP: 5; HDAC3 inhib: 25*

What do the screens show for `O=C(NCc1cccc(C(F)(F)F)c1)c1cc(-c2ccccc2)nn1CC1CC(c2cccnc2)=NO1` (stereo not drawn)?
ALR H2O2 inh: -4; Yeast UUG start: -45; MC4R ag barr: 1; MC4R antag cAMP: 3; HDAC3 inhib: 2

How did O=c1c2ccccc2sn1-c1nccs1 do in these assays?
NALP1 inh: -5; MC4R ag barr: -2; MC4R antag cAMP: 38*; cAMP nonselect: 0; MC4R antag conf: 0

How did O=C1c2ccccc2C(=O)N1c1nccs1 do in these assays?
Yeast UUG start: -7; MC4R ag barr: -1; MC4R antag cAMP: -7

Results for CC(=O)n1cc(N(C(=O)CCl)c2ccc(C)cc2)c2ccccc21 ?
ALR H2O2 inh: 14; Yeast UUG start: -4; NALP1 inh: -1; MC4R ag barr: 17*; MC4R antag cAMP: 46*; HDAC3 inhib: 4; cAMP nonselect: -21; MC4R antag conf: 45*

Results for O=C(COC(=O)CNS(=O)(=O)c1cccc(Br)c1)Nc1ccccc1Sc1ccccc1 ?
ALR H2O2 inh: 0; Yeast UUG start: 10; NALP1 inh: 17; MC4R ag barr: 5; MC4R antag cAMP: 29*; HDAC3 inhib: -3; cAMP nonselect: 6; MC4R antag conf: 18

Results for O=C(COC(=O)CNS(=O)(=O)c1c(Cl)cccc1Cl)Nc1ccccc1Sc1ccccc1 ?
ALR H2O2 inh: 4; Yeast UUG start: -3; NALP1 inh: 25; MC4R ag barr: 0; MC4R antag cAMP: 32*; HDAC3 inhib: 0; cAMP nonselect: 18*; MC4R antag conf: 37*

What do the screens show for `CCCC(=O)OCC(=O)Nc1ccccc1Sc1ccccc1`?
ALR H2O2 inh: 0; NALP1 inh: 16; MC4R ag barr: -1; MC4R antag cAMP: 19; HDAC3 inhib: 1

Results for COc1cccc(NC(=O)N[C@@H]2CC[C@@H](CC(=O)Nc3ccccc3)O[C@H]2CO)c1 ?
Yeast UUG start: -3

What do the screens show for `O=C(Nc1nnc(-c2ccccc2)s1)c1ccccc1O`?
ALR H2O2 inh: 1; Yeast UUG start: -4; NALP1 inh: -18; MC4R ag barr: 1; MC4R antag cAMP: 31*; HDAC3 inhib: -9; cAMP nonselect: 0; MC4R antag conf: -2

Results for COc1ccccc1C(=O)Nc1nnc(-c2ccccc2)s1 ?
ALR H2O2 inh: -2; Yeast UUG start: -20; NALP1 inh: 32; MC4R ag barr: -1; MC4R antag cAMP: -3; HDAC3 inhib: -2

How did O=C(OC1CCOC1=O)C1CCN(S(=O)(=O)c2ccc(Cl)c(C(F)(F)F)c2)CC1 (stereo not drawn) do in these assays?
ALR H2O2 inh: -3; MC4R ag barr: -1; MC4R antag cAMP: 51*; HDAC3 inhib: 2; cAMP nonselect: 14*; MC4R antag conf: 50*

What do the screens show for `O=C(OC1CCOC1=O)C1CCN(S(=O)(=O)c2ccccc2)CC1` (stereo not drawn)?
ALR H2O2 inh: -4; Yeast UUG start: -24; MC4R ag barr: -1; MC4R antag cAMP: 35*; HDAC3 inhib: -5; cAMP nonselect: 18*; MC4R antag conf: 43*

Results for O=C(OC1CCOC1=O)c1ccc(Cl)c(S(=O)(=O)N2CCCCC2)c1 (stereo not drawn) ?
Yeast UUG start: -8; NALP1 inh: -6; MC4R ag barr: 1; MC4R antag cAMP: 34*; cAMP nonselect: 11; MC4R antag conf: 11

How did C[C@H]1CCCCO[C@H](CN(C)C(=O)Nc2cccc3ccccc23)[C@@H](C)CN([C@@H](C)CO)C(=O)c2cc(NS(=O)(=O)c3cn(C)cn3)ccc2O1 do in these assays?
Yeast UUG start: 10

How did O=C(Nc1ccc(F)cc1)N[C@H]1CC[C@@H](CCn2cc(C3(O)CCCC3)nn2)O[C@H]1CO do in these assays?
Yeast UUG start: 1

How did CNC[C@H]1OCCCC[C@@H](C)Oc2ccc(NC(=O)C3CCCCC3)cc2C(=O)N([C@H](C)CO)C[C@H]1C do in these assays?
Yeast UUG start: 7

How did COc1ccc(/C=C/C(=O)c2ccc([N+](=O)[O-])o2)cc1 do in these assays?
ALR H2O2 inh: -5; Yeast UUG start: 1; MC4R ag barr: -3; MC4R antag cAMP: 30*; HDAC3 inhib: 1; cAMP nonselect: 8; MC4R antag conf: 7

What do the screens show for `O=C(C[C@@H]1C=C[C@H](NC(=O)c2ccc(F)cc2)[C@@H](CO)O1)NCCc1ccncc1`?
Yeast UUG start: -16

How did C[C@@H]1CN([C@H](C)CO)C(=O)c2cc(-c3ccccc3)cnc2O[C@@H]1CN(C)C(=O)Cc1cccnc1 do in these assays?
Yeast UUG start: -12

How did CCN(CC(=O)Nc1c(F)cccc1F)C(=O)CCN1C(=O)c2cccc([N+](=O)[O-])c2C1=O do in these assays?
ALR H2O2 inh: -14; Yeast UUG start: 4; MC4R ag barr: -2; MC4R antag cAMP: 36*; HDAC3 inhib: 2; cAMP nonselect: 16*; MC4R antag conf: 49*
